The record followed here is patent publication US10215752B2, “Nanotube array for optical detection of protein-protein interactions” (MASSACHUSETTS INSTITUTE OF TECHNOLOGY, priority 2010, dated 2019).

The test deals with T1, PA-IIL lectin (Pseudomonas aeruginosa, UniProt Q9HYN5).
T1 construct: made in house; host or cells: E. coli BL21(DE3) Star
The format is binding. The conditions noted are these: from concentration dependent curves, analyte to PA-IIL. The procedure: To increase the reproducibility of these sensors, an automated printing method of the chitosan gel was introduced (FIG. 35). Patterned glass microscope slides (Tekdon™) were inserted in a microarray printer (Digilab MicroSys System™), where the robotic head was programmed to dispense alternating layers of chitosan-SWNT (0.25 wt % chitosan (CHI), 1 vol % acetic acid, 30 ug/ml suspended (6,5) SWNT) and crosslinker (10 vol % glutaraldehyde). The suspended SWNT was made from Southwest Nanotechnologies, Inc. CoMoCAT® nanotubes sonicated in 0.25 wt % chitosan (CHI) and 1 vol % acetic acid for 45 minutes at 40% amplitude with a probe-tip sonicator (Cole Parmer, Model CV18). […] The chips were printed in a humidified enclosure (85% RH) at 25° C. and allowed to cross-link overnight in the same environment. Nickel-NTA groups were introduced as previously reported^8; see FIG. 3. […]
A custom-made near infrared inverted microscope (Zeiss D.1 Observer™) setup allowed us to probe the fluorescent emissions of our SWNT sensors (FIG. 26a). […] The SWNT were excited by a 785 nm laser (B&W Tek™—495 mW) and the emission was sent to a spectrometer (Princeton Instruments Acton SpectraPro 2500i Spectrograph™) and accompanying nIR camera (Intervac MOSIR Camera 350™) The spectra were collected via WinSpec software (Princeton Instruments™) and analyzed with custom Matlab (Mathworks™) code. […]

“Fuc-Strept: model glycoprotein probe: biotinylated fucose glycan bound to streptavidin” showed a kr of 0.0142 s⁻¹.
